miR-21 reporter: miR-21 reporter, rising signal | HeLa miR-21 FLuc reporter, luciferase, 48 h | Potency, µM (top dose mostly 38.3 µM), inactives show at the top dose reporter change, positive = more light | 340,000 tested, under 10 active | AID 2288; active = well fitted rising curve with a large enough effect; inconclusive = small, poorly fitted or top-dose-only effect; inactive = no such curve, though single readings can be large or run the other way;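 further: % of control where 0% means no effect; miR-21 action dims this reporter so a rising signal means less miR-21 action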
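Using DMEM plus 10% FBS, HeLa miR-21-FLuc cells are incubated with test compounds (final up to about 40uM) for 48 hours; firefly luciferase signal is then imaged following reagent-mediated lysis.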
DT40 TDP1 no CPT: qHTS for Inhibitors of human tyrosyl-DNA phosphodiesterase 1 (TDP1): qHTS in cells in absence of CPT; AID 686978, 2013; actives 15% (n = 420,000); Potency, µM (top dose mostly 46.2 µM), for the others: at the top dose activity change, negative = growth inhibition, hits mostly inhibitors; DT40 Tdp1-/- hTDP1 cells, no CPT, ATP luminescence, 48 h; also: potency is read from the fitted curve at half-maximal effect; % is scaled to controls: 0 for no effect and ±100 for the full control effect; nearly all actives have a fitted effect of over 55% in size
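Cells were dispensed at 400 per well, compounds added by pin tool, plates incubated ≥48 hr at 37 °C, then CellTiter-Glo added for 30 min at room temperature before luminescence reading. Line: DT40 Tdp1-/- complemented with hTDP1; camptothecin omitted.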
uPA generation: blocks generation of uPA at the cell surface | actives 0.31% (n = 330,000) | cell surface uPA generation assay, qHTS | Potency, µM (series often up to 38.3 µM), without a hit: at the highest dose activity change, negative = inhibition, usual class: inhibitors | AID 540303; active = well fitted inhibition curve with a large enough effect; inconclusive = small, poorly fitted or top-dose-only effect; inactive = no such curve, though single readings can be large or run the other way; tested in mouse RAW 264.7 cells; also: potency is read from the fitted curve at half-maximal effect; % is scaled to controls: 0 for no effect and ±100 for the full control effect; nearly all actives have a fitted effect of over 55% in size
TDP1 inh: inhibitors of human tyrosyl-DNA phosphodiesterase TDP1; Q9NUW8; recombinant TDP1, AlphaScreen DNA substrate cleavage; Potency, µM (doses to about 130 µM), inactives show top-dose activity change, negative = inhibition, most hits filed as inhibitors; actives 0.28% (n = 350,000); AID 485290; also: potency is read from the fitted curve at half-maximal effect; % is scaled to controls: 0 for no effect and ±100 for the full control effect; nearly all actives have a fitted effect of over 40% in size
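Enzyme-compound mixtures sat 15 min at room temperature, followed by a 5 min reaction with 15 nM final substrate and 10 min with AlphaScreen beads. Recombinant human Tdp1 was used at 1 nM final.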
DT40 TDP1 CPT: DT40-hTDP1 cell growth loss with CPT; chicken DT40 Tdp1-/-;hTDP1 cells + 20 nM CPT, ATP luminescence, 48 h; Potency, µM (series often up to 46.2 µM), without a hit: at the top dose activity change, negative = growth inhibition, most hits filed as inhibitors; actives 12% (n = 420,000); AID 686979; also: potency is read from the fitted curve at half-maximal effect; % is scaled to controls: 0 for no effect and ±100 for the full control effect; nearly all actives have a fitted effect of over 55% in size
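Chicken DT40 Tdp1-/- cells stably complemented with human TDP1 were seeded at 400 cells/well in medium containing 20 nM camptothecin, exposed to pin-transferred compounds, and grown at 37 °C for at least 48 hr. Viability was read as ATP luminescence.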
An asterisk follows results filed as active; ? = inconclusive; · = no result. Compounds with a hit are over-represented: about 16% of the library has one in this group of screens. Unless noted, calls follow the shape of the dose curve; as a rule, active = well fitted curve in the direction sought with a large enough effect; inconclusive = small, poorly fitted or top-dose-only effect, or another doubt; inactive = no such curve, though single readings can be large; an effect the other way counts as inactive or inconclusive.

[1] CCNC(=S)NNc1ccccc1
[2] O=C(CNc1cccc(Cl)c1)NNC(=S)NCc1ccccc1
[3] S=C(NCc1ccccc1)NNc1ccccc1
[4] CCNC(=S)NNc1nncc2ccccc12
[5] COC(=O)C1=C(C)N(c2ccc(Cl)c(Cl)c2)C(=O)C1
[6] CCC/C(=C1/c2ccccc2C(=O)N1c1ccccc1)c1ccc2[nH]ccc2c1
[7] O=C1c2ccccc2/C(=C\c2ccc3[nH]ccc3c2)N1c1ccccc1
[8] COc1cccc(/C=C/C(=O)OCC(=O)c2c[nH]c3ccccc23)c1OC
[9] Fc1ccc(/C=C/c2nccc3ccccc23)cc1
[10] COc1cccc(/C=C/C(=O)NNC(=O)c2ccncc2)c1OC

| compound no. | 1 | 2 | 3 | 4 | 5 | 6 | 7 | 8 | 9 | 10 |
| --- | --- | --- | --- | --- | --- | --- | --- | --- | --- | --- |
| miR-21 reporter | -5% | 8% | -4% | -17% | -4% | · | · | 3% | · | · |
| DT40 TDP1 no CPT | 5.2µM* | 23µM* | 5.8µM* | ? | 5.2µM* | 16µM* | ? | ? | 14µM* | -4% |
| uPA generation | -2% | 2% | · | -3% | -9% | ? | -17% | 4% | · | -24% |
| TDP1 inh | 7% | 2% | 11% | -3% | 5% | 0% | 3% | 5% | · | 2% |
| DT40 TDP1 CPT | 3.3µM* | ? | 4.6µM* | ? | 5.2µM* | 16µM* | ? | ? | 7.1µM* | 2% |

The list goes on, starting with the last 4 of the part before.
[7] O=C1c2ccccc2/C(=C\c2ccc3[nH]ccc3c2)N1c1ccccc1
[8] COc1cccc(/C=C/C(=O)OCC(=O)c2c[nH]c3ccccc23)c1OC
[9] Fc1ccc(/C=C/c2nccc3ccccc23)cc1
[10] COc1cccc(/C=C/C(=O)NNC(=O)c2ccncc2)c1OC
[11] COc1cccc(/C=C/c2nc3ccccc3nc2/C=C/c2cccc(OC)c2OC)c1OC
[12] COc1cccc(/C=C/c2nccc3ccccc23)c1OC
[13] COc1cccc(/C=C/c2ccncc2)c1OC
[14] CCOc1ccccc1N(C)C(=O)CCS(=O)(=O)c1ccc2c(c1)NC(=O)CO2
[15] CC(C)OC(=O)c1ccc(Cn2nnc3ccccc3c2=O)cc1
[16] CCN(CC)c1ccc2c(c1)OC(N)=C(C#N)C2c1cccnc1 (stereo not drawn)
[17] N#CC1=C(N)Oc2cc(N)ccc2C1c1cccnc1 (stereo not drawn)
[18] N#CC1=C(N)Oc2cc(N)ccc2C1c1ccc(Cl)cc1 (stereo not drawn)
[19] COC(=O)C(CCSC)NC(=O)c1cc2c(n(-c3ccc(OC)cc3)c1=O)CC(C)(C)CC2=O (stereo not drawn)
[20] O=C(NCCc1ccccc1)c1ccc(CS(=O)(=O)Cc2ccccc2Cl)o1

| compound no. | 7 | 8 | 9 | 10 | 11 | 12 | 13 | 14 | 15 | 16 | 17 | 18 | 19 | 20 |
| --- | --- | --- | --- | --- | --- | --- | --- | --- | --- | --- | --- | --- | --- | --- |
| miR-21 reporter | · | 3% | · | · | · | · | -35% | 2% | -35% | 10% | 1% | 0% | -6% | 6% |
| DT40 TDP1 no CPT | ? | ? | 14µM* | -4% | 2.8µM* | 16µM* | 23µM* | 27% | -15% | 0.037µM* | 16µM* | -1% | -16% | ? |
| uPA generation | -17% | 4% | · | -24% | · | · | -15% | 3% | 2% | -14% | -9% | -2% | · | · |
| TDP1 inh | 3% | 5% | · | 2% | · | · | -3% | 2% | -4% | 4% | 0% | 6% | 2% | 8% |
| DT40 TDP1 CPT | ? | ? | 7.1µM* | 2% | 8.9µM* | ? | ? | -2% | -13% | 0.021µM* | ? | -7% | -22% | ? |

[21] COc1ccc(-c2c(C)nn3c(N4CCC(C(=O)NCCN(C)C)CC4)cc(C)nc23)cc1OC
[22] COCCCNC(=O)C1CCN(c2cc(C)nc3c(-c4ccc(OC)c(OC)c4)c(C)nn23)CC1
[23] CCN(CC)CCNC(=O)C1CCN(c2cc(C)nc3c(-c4ccc(Cl)cc4)c(C)nn23)CC1
[24] CCCN(CCC)C(=O)C1CCN(c2cc(C)nc3c(-c4ccc(OC)c(OC)c4)c(C)nn23)CC1
[25] CC1CCC/C=C/C(=O)c2c(O)cc(O)cc2CC(=O)O1 (stereo not drawn)
[26] CCOc1ccc2c(c1)n([O-])c1c([n+]2=O)CCCC1
[27] COc1cc(/C=C/C(=O)OC2CC3CCC2(C)C3(C)C)ccc1O (stereo not drawn)
[28] CCC(c1nnnn1-c1c(C)cccc1C)N1CCCN(Cc2ccc(F)cc2)CC1 (stereo not drawn)
[29] O=C(Nc1ccc(Cl)c(C(F)(F)F)c1)C1CCN(S(=O)(=O)c2cccc3nonc23)CC1
[30] CC1CCN(C(=O)C2CCN(S(=O)(=O)c3cc(Cl)ccc3Cl)CC2)CC1

| compound no. | 21 | 22 | 23 | 24 | 25 | 26 | 27 | 28 | 29 | 30 |
| --- | --- | --- | --- | --- | --- | --- | --- | --- | --- | --- |
| miR-21 reporter | -5% | 15% | -1% | -5% | ? | -9% | -18% | · | -1% | -2% |
| DT40 TDP1 no CPT | -1% | 16µM* | 4.1µM* | 16µM* | 4.1µM* | ? | 16µM* | 16µM* | 5.2µM* | 21µM* |
| uPA generation | · | · | · | -12% | ? | 0% | -6% | · | · | -1% |
| TDP1 inh | 5% | 6% | 0% | -3% | · | -2% | · | · | 5% | -2% |
| DT40 TDP1 CPT | ? | -18% | 3.7µM* | 18µM* | 4.6µM* | 13µM* | 18µM* | ? | 13µM* | ? |

[31] O=C(C1CCN(S(=O)(=O)c2cccc3nonc23)CC1)N1CCN(c2ccc(F)cc2)CC1
[32] Cc1ccc(C)c(N2CCN(C(=O)C3CCCN(S(=O)(=O)c4cccc5nonc45)C3)CC2)c1 (stereo not drawn)
[33] O=S(=O)(c1cccc2nonc12)N1CCN(c2ccc(F)cc2)CC1
[34] O=C(Nc1cccc(C(F)(F)F)c1)C1CCCN(S(=O)(=O)c2cccc3nonc23)C1 (stereo not drawn)
[35] O=C1CC(C(=O)O)C(c2ccccc2)c2ccccc21 (stereo not drawn)
[36] O=C(C1CCN(S(=O)(=O)c2ccccc2)CC1)N1CCN(c2ccccc2)CC1
[37] O=C(NCCc1ccccc1)C1CCCN(S(=O)(=O)c2cccc3nonc23)C1 (stereo not drawn)
[38] O=C(C1CCN(S(=O)(=O)c2cccc3nonc23)CC1)N1CCN(c2ccccc2)CC1
[39] COc1ccc(N2CCN(C(=O)C3CCN(S(=O)(=O)c4ccccc4)CC3)CC2)cc1
[40] O=C(C1CCCN(S(=O)(=O)c2cccc3nonc23)C1)N1CCC(Cc2ccccc2)CC1 (stereo not drawn)

| compound no. | 31 | 32 | 33 | 34 | 35 | 36 | 37 | 38 | 39 | 40 |
| --- | --- | --- | --- | --- | --- | --- | --- | --- | --- | --- |
| miR-21 reporter | 13% | 0% | -29% | 0% | · | 2% | -3% | 16% | 4% | 7% |
| DT40 TDP1 no CPT | 12µM* | 6.5µM* | -5% | ? | -16% | 21µM* | ? | 23µM* | ? | 18µM* |
| uPA generation | · | · | 1% | · | 5% | -4% | -1% | · | 2% | -1% |
| TDP1 inh | 3% | 8% | 3% | -2% | · | 5% | -3% | 3% | 0% | 3% |
| DT40 TDP1 CPT | 21µM* | 9.2µM* | -1% | ? | 0% | ? | -13% | ? | -25% | 21µM* |

[41] COc1ccc(Cl)cc1NC(=O)C1CCCN(S(=O)(=O)c2cccc3nonc23)C1 (stereo not drawn)
[42] O=C(C1CCCN(S(=O)(=O)c2cccc3nonc23)C1)N1CCN(c2cccc(Cl)c2)CC1 (stereo not drawn)
[43] Cc1cc2nc(-c3ccc(Br)cc3)cc(C(F)(F)F)n2n1
[44] O=C(C1CCN(S(=O)(=O)c2cccc3nonc23)CC1)N1CCN(c2cccc(Cl)c2)CC1
[45] Cc1ccc(Cl)cc1N1CCN(C(=O)C2CCN(S(=O)(=O)c3cccc4nonc34)CC2)CC1
[46] COc1ccccc1N1CCN(C(=O)C2CCN(S(=O)(=O)c3cccc4nonc34)CC2)CC1

| compound no. | 41 | 42 | 43 | 44 | 45 | 46 |
| --- | --- | --- | --- | --- | --- | --- |
| miR-21 reporter | -3% | -2% | -9% | ? | 20% | 7% |
| DT40 TDP1 no CPT | ? | 23µM* | -22% | 15µM* | 7.3µM* | ? |
| uPA generation | 6% | -3% | · | · | · | · |
| TDP1 inh | 0% | 2% | · | 0% | -1% | 2% |
| DT40 TDP1 CPT | ? | 16µM* | 6% | 26µM* | 12µM* | ? |

Source: PubChem
